{"sequences": {"note": "By UniProt entry, the sequences of proteins in these tests, tags left out.", "UniProt P01901, whole entry, looked up, stated change not applied": "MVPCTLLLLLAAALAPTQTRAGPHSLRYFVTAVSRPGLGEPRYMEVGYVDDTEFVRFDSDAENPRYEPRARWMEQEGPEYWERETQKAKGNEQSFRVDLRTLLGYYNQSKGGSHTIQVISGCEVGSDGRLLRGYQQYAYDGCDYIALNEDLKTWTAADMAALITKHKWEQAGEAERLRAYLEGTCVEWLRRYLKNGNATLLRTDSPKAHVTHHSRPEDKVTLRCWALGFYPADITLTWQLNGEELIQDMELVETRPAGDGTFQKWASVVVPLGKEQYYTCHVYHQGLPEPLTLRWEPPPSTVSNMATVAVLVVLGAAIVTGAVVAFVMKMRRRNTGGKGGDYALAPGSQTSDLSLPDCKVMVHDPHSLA"}, "source": "patent US20010007152A1", "about": "“RECOMBINANT CONSTRUCTS ENCODING T CELL RECEPTORS SPECIFIC FOR HUMAN HLA-RESTRICTED TUMOR ANTIGENS” (priority 1996, published 2001)", "key": {"HLA A2.1": {"biological_target": "T1, HLA A2.1 (UniProt P01901+P04439, D140Y/D185E/D98H/E176V/G131W/I119V/I121R/I166T/N151K/N90K/Q86G/Q94H/R138H/R169H)", "T1 construct": "expressed in transfected cells; host or cells: T2-A2.1/K^b cells", "assay": "Competition assay: inhibition of influenza matrix peptide M1 (58-66) binding to A2.1, read as inhibition of lysis by an M1-specific CTL clone", "design": "species or system human", "details": "test peptide 10 μg vs influenza matrix peptide 0.1 μg; T2-A2.1/K^b target cells", "procedure": "Briefly, each test peptide (10 μg) was incubated with radiolabeled target cells (T2-A2.1/K^b, 10^6 target cells labeled with […] ^51Cr at 37° for 1.5 hours) in the presence of an influenza virus matrix protein (0.1 μg). The ability of these peptides to inhibit the binding of the influenza matrix protein peptide MI (58-66) to A2.1 was measured by inhibition of lysis by an M1 (58-66) specific, A2.1 restricted CTL clone."}, "MALME-3M": {"system": "MALME-3M", "assay": "Lysis of tumor cells by peptide-specific CTL", "assay_type": "cell-based, human", "details": "6 hours"}, "U2-OS": {"system": "U2-OS", "assay": "Lysis of tumor cells by peptide-specific CTL", "assay_type": "cell-based, human", "details": "6 hours"}, "SAOS.175": {"system": "SAOS.175", "assay": "Lysis of tumor cells by peptide-specific CTL", "assay_type": "cell-based, human", "details": "6 hours"}, "T98G": {"system": "T98G", "assay": "Lysis of tumor cells by peptide-specific CTL", "assay_type": "cell-based, human", "details": "6 hours"}, "SKMEL-5": {"system": "SKMEL-5", "assay": "Lysis of tumor cells by peptide-specific CTL", "assay_type": "cell-based, human", "details": "6 hours"}, "BT549": {"system": "BT549", "assay": "Lysis of tumor cells by peptide-specific CTL", "assay_type": "cell-based, human", "details": "6 hours"}, "SW480": {"system": "SW480", "assay": "Lysis of tumor cells by peptide-specific CTL", "assay_type": "cell-based, human", "details": "6 hours"}, "LG-2": {"system": "LG-2", "assay": "Lysis of tumor cells by peptide-specific CTL", "assay_type": "cell-based, human", "details": "6 hours"}, "U87G": {"system": "U87G", "assay": "Lysis of tumor cells by peptide-specific CTL", "assay_type": "cell-based, human", "details": "6 hours"}, "ST486": {"system": "ST486", "assay": "Lysis of tumor cells by peptide-specific CTL", "assay_type": "cell-based, human", "details": "6 hours"}, "CASKI": {"system": "CASKI", "assay": "Lysis of tumor cells by peptide-specific CTL", "assay_type": "cell-based, human", "details": "6 hours"}, "MDA.MB231": {"system": "MDA.MB231", "assay": "Lysis of tumor cells by peptide-specific CTL", "assay_type": "cell-based, human", "details": "6 hours"}, "SV80": {"system": "SV80", "assay": "Lysis of tumor cells by peptide-specific CTL", "assay_type": "cell-based, human", "details": "6 hours"}, "MDA.MB435": {"system": "MDA.MB435", "assay": "Lysis of tumor cells by peptide-specific CTL", "assay_type": "cell-based, human", "details": "6 hours"}, "OVCAR-5": {"system": "OVCAR-5", "assay": "Lysis of tumor cells by peptide-specific CTL", "assay_type": "cell-based, human", "details": "6 hours"}, "Hep-G2": {"system": "Hep-G2", "assay": "Lysis of tumor cells by peptide-specific CTL", "assay_type": "cell-based, human", "details": "6 hours"}, "JY": {"system": "JY", "assay": "Lysis of tumor cells by peptide-specific CTL", "assay_type": "cell-based, human", "details": "6 hours"}, "NCl.H1355": {"system": "NCl.H1355", "assay": "Lysis of tumor cells by peptide-specific CTL", "assay_type": "cell-based, human", "details": "6 hours"}, "MCF-7": {"system": "MCF-7", "assay": "Lysis of tumor cells by peptide-specific CTL", "assay_type": "cell-based, human", "details": "6 hours"}, "[1]": {"details": "tumor preincubated 24 hours with 20 ng/ml γ-IFN and 3 ng/ml TNF-α"}}}
{"compound": "CLTSTVQLV [H15]", "values": [{"measurement": "% INHIBITION", "setting": "HLA A2.1", "result": 33, "unit": "%"}]}
{"compound": "CC[C@H](C)[C@H](NC(=O)[C@@H](N)CCCCN)C(=O)N[C@@H](Cc1ccccc1)C(=O)NCC(=O)N[C@@H](CO)C(=O)N[C@@H](CC(C)C)C(=O)N[C@@H](C)C(=O)N[C@@H](Cc1ccccc1)C(=O)N[C@@H](CC(C)C)C(=O)O", "note": "[H3]", "values": [{"measurement": "Killing of tumor (lysis) + CYT", "setting": "MALME-3M; [1]", "result": 57}, {"measurement": "Killing of tumor (lysis)", "setting": "MALME-3M; melanoma, A2 +, Her-2 +, no cytokine preincubation", "result": 28, "unit": "%"}, {"measurement": "Killing of tumor (lysis) + CYT", "setting": "U2-OS; [1]", "result": 91}, {"measurement": "Killing of tumor (lysis)", "setting": "U2-OS; osteosarcoma, A2 +, Her-2 +, no cytokine preincubation", "result": 32, "unit": "%"}, {"measurement": "Killing of tumor (lysis)", "setting": "SAOS.175; SAOS.175, osteosarcoma, A2 +, Her-2 +, no cytokine preincubation", "result": 27, "unit": "%"}, {"measurement": "Killing of tumor (lysis) + CYT", "setting": "SAOS.175; SAOS.175, tumor preincubated 24 hours with 20 ng/ml γ-IFN and 3 ng/ml TNF-α", "result": 33}, {"measurement": "Killing of tumor (lysis) + CYT", "setting": "T98G; [1]", "result": 99}, {"measurement": "Killing of tumor (lysis)", "setting": "T98G; glioblastoma, A2 +, Her-2 +, no cytokine preincubation", "result": 20, "unit": "%"}, {"measurement": "Killing of tumor (lysis)", "setting": "SKMEL-5; SKMEL-5, melanoma, A2 +, Her-2 +, no cytokine preincubation", "result": 6, "unit": "%"}, {"measurement": "Killing of tumor (lysis) + CYT", "setting": "SKMEL-5; SKMEL-5, tumor preincubated 24 hours with 20 ng/ml γ-IFN and 3 ng/ml TNF-α", "result": 38}, {"measurement": "Killing of tumor (lysis)", "setting": "BT549; BT549, breast, A2 +, Her-2 +, no cytokine preincubation", "result": 2, "unit": "%"}, {"measurement": "Killing of tumor (lysis) + CYT", "setting": "BT549; BT549, tumor preincubated 24 hours with 20 ng/ml γ-IFN and 3 ng/ml TNF-α", "result": 40}, {"measurement": "Killing of tumor (lysis)", "setting": "SW480; SW480, colon, A2 +, Her-2 +, no cytokine preincubation", "result": 6, "unit": "%"}, {"measurement": "Killing of tumor (lysis) + CYT", "setting": "SW480; SW480, tumor preincubated 24 hours with 20 ng/ml γ-IFN and 3 ng/ml TNF-α", "result": 50}, {"measurement": "Killing of tumor (lysis)", "setting": "LG-2; LG-2, EBV-trans., A2 +, Her-2 −, no cytokine preincubation", "result": 2, "unit": "%"}, {"measurement": "Killing of tumor (lysis) + CYT", "setting": "LG-2; LG-2, tumor preincubated 24 hours with 20 ng/ml γ-IFN and 3 ng/ml TNF-α", "result": 4}, {"measurement": "Killing of tumor (lysis) + CYT", "setting": "U87G; [1]", "result": 1}, {"measurement": "Killing of tumor (lysis)", "setting": "U87G; glioblastoma, A2 +, Her-2 −, no cytokine preincubation", "result": 2, "unit": "%"}, {"measurement": "Killing of tumor (lysis)", "setting": "ST486; ST486, lymphoma, A2 +, Her-2 −, no cytokine preincubation", "result": 1, "unit": "%"}, {"measurement": "Killing of tumor (lysis) + CYT", "setting": "ST486; ST486, tumor preincubated 24 hours with 20 ng/ml γ-IFN and 3 ng/ml TNF-α", "result": 1}, {"measurement": "Killing of tumor (lysis) + CYT", "setting": "CASKI; [1]", "result": 30}, {"measurement": "Killing of tumor (lysis)", "setting": "CASKI; cervix, A2 +, Her-2 +, no cytokine preincubation", "result": 13, "unit": "%"}, {"measurement": "Killing of tumor (lysis)", "setting": "MDA.MB231; MDA.MB231, breast, A2 +, Her-2 +, no cytokine preincubation", "result": 34, "unit": "%"}, {"measurement": "Killing of tumor (lysis) + CYT", "setting": "MDA.MB231; MDA.MB231, tumor preincubated 24 hours with 20 ng/ml γ-IFN and 3 ng/ml TNF-α", "result": 85}, {"measurement": "Killing of tumor (lysis)", "setting": "SV80; SV80, fibroblast, A2 +, Her-2 −, no cytokine preincubation", "result": 4, "unit": "%"}, {"measurement": "Killing of tumor (lysis) + CYT", "setting": "SV80; SV80, tumor preincubated 24 hours with 20 ng/ml γ-IFN and 3 ng/ml TNF-α", "result": 8}, {"measurement": "Killing of tumor (lysis)", "setting": "MDA.MB435; MDA.MB435, breast, A2 −, Her-2 +, no cytokine preincubation", "result": 3, "unit": "%"}, {"measurement": "Killing of tumor (lysis) + CYT", "setting": "MDA.MB435; MDA.MB435, tumor preincubated 24 hours with 20 ng/ml γ-IFN and 3 ng/ml TNF-α", "result": 2}, {"measurement": "Killing of tumor (lysis)", "setting": "OVCAR-5; OVCAR-5, ovarian, A2 +, Her-2 +, no cytokine preincubation", "result": 25, "unit": "%"}, {"measurement": "Killing of tumor (lysis) + CYT", "setting": "OVCAR-5; OVCAR-5, tumor preincubated 24 hours with 20 ng/ml γ-IFN and 3 ng/ml TNF-α", "result": 29}, {"measurement": "Killing of tumor (lysis)", "setting": "Hep-G2; Hep-G2, hepatoma, A2 +, Her-2 +, no cytokine preincubation", "result": 4, "unit": "%"}, {"measurement": "Killing of tumor (lysis) + CYT", "setting": "Hep-G2; Hep-G2, tumor preincubated 24 hours with 20 ng/ml γ-IFN and 3 ng/ml TNF-α", "result": 20}, {"measurement": "Killing of tumor (lysis) + CYT", "setting": "JY; [1]", "result": 1}, {"measurement": "Killing of tumor (lysis)", "setting": "JY; lymphoma, A2 +, Her-2 −, no cytokine preincubation", "result": 2, "unit": "%"}, {"measurement": "Killing of tumor (lysis)", "setting": "NCl.H1355; NCl.H1355, lung, A2 +, Her-2 +, no cytokine preincubation", "result": 11, "unit": "%"}, {"measurement": "Killing of tumor (lysis) + CYT", "setting": "NCl.H1355; NCl.H1355, tumor preincubated 24 hours with 20 ng/ml γ-IFN and 3 ng/ml TNF-α", "result": 38}, {"measurement": "Killing of tumor (lysis)", "setting": "MCF-7; MCF-7, breast, A2 +, Her-2 +, no cytokine preincubation", "result": 7, "unit": "%"}, {"measurement": "Killing of tumor (lysis) + CYT", "setting": "MCF-7; MCF-7, tumor preincubated 24 hours with 20 ng/ml γ-IFN and 3 ng/ml TNF-α", "result": 54}]}
